This is a selection; strong and weak results do not stand in their true shares. Active and inactive are the calls of the source.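 How the source made its calls: active means mean inhibition of at least 75% with every replicate also reaching 75%; inconclusive means mean inhibition at least 75% but some replicate below; inactive means mean inhibition below 75%.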
Experiment: Shn3 3'UTR reporter decrease in osteoblasts – cell-based, Clone20 osteoblasts, firefly luciferase, set 2, Schnurri-3 inhibitor project, primary screen (AID 588674);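 further: 0% = median of neutral control wells and 100% = pilot-screen positive control compound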
Conditions: Clone20 osteoblast Shn3 3'UTR firefly luciferase, 24 h; at 12.5 µM; hits give high values

Row | SMILES | inhibition
1 | O=P1(N(CCCl)CCCl)OCCCS1 (stereo not drawn) | inactive: 5.44%
2 | O=C(Nc1cc([As](=O)(O)O)ccc1O)c1ccccc1 | inactive: 3.91%
3 | O=[N+]([O-])c1ncn(CCn2ncnc2[N+](=O)[O-])n1 | inactive: 13%
4 | CC(C)(C)C(=O)NC(Sc1ccncn1)C(Cl)(Cl)Cl (stereo not drawn) | inactive: -14.3%
5 | O=C(O)CNc1ccc([As](=O)(O)O)cc1 | inactive: 11.5%
6 | O=[N+]([O-])c1cccc(NC2=NCC(CBr)S2)c1 (stereo not drawn) | inactive: -6.93%
7 | COC(=O)C1(C)COP(=O)(Nc2ccccc2)OC1 (stereo not drawn) | inactive: -13.4%
8 | COc1ccc(C2=NCC(CBr)S2)cc1 (stereo not drawn) | inactive: 4.88%
9 | O=[N+]([O-])c1cc([N+](=O)[O-])c(CCNc2ccccc2)c([N+](=O)[O-])c1 | inactive: -13.1%
10 | Cc1ccc(NP(=O)(Oc2ccccc2)Oc2ccccc2)nc1 | inactive: -8.56%
11 | CC(=O)N1C2C3N(C(C)=O)C1C1N(C(C)=O)C(C(N1C(C)=O)N3C(C)=O)N2C(C)=O | inactive: -7.83%
12 | O=[N+]([O-])c1cccc2n[nH]nc12 | inactive: -7.64%
13 | CCN(/C(=N/P(=O)(N1CCOCC1)N1CCOCC1)N1CCOCC1)c1ccc(OC)cc1 | inactive: 10.7%
14 | C[N+]1=C2C=CC=CC=C2SC12C([N+](=O)[O-])=CC([N+](=O)[O-])=C[C-]2[N+](=O)[O-] (stereo not drawn) | inactive: 12.1%
15 | Nc1ccc([As](=O)(O)c2ccc(N)cc2)cc1 | inactive: -2.84%
16 | c1cc(-c2nn[nH]n2)ccc1-c1nn[nH]n1 | inactive: 1.71%
17 | CC1CCN(C(=O)Oc2c(Cl)cc(Cl)c3cccnc23)CC1 | inactive: 3.3%
18 | CN(C)C(=O)OCCc1n(C)cc[n+]1C | inactive: -15.1%
19 | CC(C)=N/N=C(\N)N[N+](=O)[O-] | inactive: -11.9%
20 | CC(C)c1nc(Nc2ccccc2)n(P(=O)(N(C)C)N(C)C)n1 | inactive: 6.26%
21 | Cc1ccc(N/C(=N/P(=O)(N2CCOCC2)N2CCOCC2)N2CCOCC2)cc1 | inactive: -7.09%
22 | CN(C(=O)Cc1ccc(Cl)c(Cl)c1)[C@H]1CCCC[C@H]1N1CCCC1 | inactive: -5.21%
23 | NC(=O)c1cc([N+](=O)[O-])cc([N+](=O)[O-])c1N | inactive: 10.7%
24 | Clc1ccc(Cl)c(NC2=NCC(CBr)S2)c1 (stereo not drawn) | inactive: -5.52%
25 | CN1CCCC(OC(=O)C(c2ccccc2)c2ccccc2)C1 (stereo not drawn) | inactive: 2.82%
26 | Cc1ccc(OP(=O)(Nc2nccs2)Oc2ccc(C)cc2)cc1 | inactive: 5.21%

Row | SMILES | inhibition
27 | COc1ccccc1OP(=O)(Nc1ccc(C)cn1)Oc1ccccc1OC | inactive: 7.87%
28 | O=C(NC(Sc1ccncn1)C(Cl)(Cl)Cl)c1ccccc1 (stereo not drawn) | inactive: -4.29%
29 | Oc1ccccc1CNc1ccccn1 | inactive: 5.17%
30 | CC(C)CC(=O)NC(Sc1ccc(Cl)cc1)C(Cl)(Cl)Cl (stereo not drawn) | inactive: -4.46%
31 | Nc1cc(N)c2nonc2c1[N+](=O)[O-] | inactive: 1.52%
32 | O=[N+]([O-])C1C(O)C(O)C([N+](=O)[O-])C(O)C1O (stereo not drawn) | inactive: -15.5%
33 | CN(C)P(=O)(N(C)C)n1c(Nc2ccccc2)nnc1-c1ccccc1 | inactive: -26.6%
34 | O=P(Nc1nc2ccc(Cl)cc2s1)(c1ccccc1)c1ccccc1 | inactive: 11.1%
35 | CCCC1OP(N)(=O)OCC1CC (stereo not drawn) | inactive: -32.1%
36 | O=C(O)c1ccccc1[As](=O)(O)O | inactive: -28.8%
37 | CC(=O)Nc1ccc([As](=O)(O)O)cc1 | inactive: -6.05%
38 | CN(C(=O)Cc1ccc(Cl)c(Cl)c1)[C@H]1CCCC[C@@H]1N1CCCC1 | inactive: 6.6%
39 | Cc1ccc(NP(=O)(Oc2ccccc2F)Oc2ccccc2F)nc1 | inactive: 4.76%
40 | CCOP(=O)(Nc1ccccc1)OCC | inactive: 5.85%
41 | Cc1cc(SC(NC(=O)c2ccc(F)cc2)C(Cl)(Cl)Cl)ncn1 (stereo not drawn) | inactive: -17.7%
42 | Nc1cccc2ccc([As](=O)(O)O)cc12 | inactive: -7.73%
43 | CCN(N=Nc1nonc1N)c1nonc1N | inactive: 7.94%
44 | Cc1ccc(NP(=O)(Oc2cccc(C)c2)Oc2cccc(C)c2)nc1 | inactive: 5.34%
45 | c1ccc(-c2nn[nH]n2)c(-c2nn[nH]n2)c1 | inactive: 8.41%
46 | O=C(NC1CCS(=O)(=O)C1)NP(=S)(Oc1ccccc1)Oc1ccccc1 (stereo not drawn) | inactive: 11.3%
47 | CCNC(=S)/N=C(\N)N[N+](=O)[O-] | inactive: -2.39%
48 | O=P1(N(CCCl)CCCl)OCCC2CCCCN21 (stereo not drawn) | inactive: -4.85%
49 | CCC(=O)N1C2C3N(C(=O)CC)C1C1N(C(=O)CC)C(C(N1C(=O)CC)N3C(=O)CC)N2C(=O)CC | inactive: -27.8%
50 | O=C(OC1CN2CCC1CC2)c1ccccc1 (stereo not drawn) | inactive: 1.79%
51 | CC(=O)NC(SC(=S)N(CC(C)C)CC(C)C)C(Cl)(Cl)Cl (stereo not drawn) | inactive: -8.44%
52 | Cc1ccc(OP(=O)(Nc2ccccn2)Oc2ccc(C)cc2)cc1 | inactive: 26%

Row | SMILES | inhibition
53 | COC(=O)c1cc2c(s1)N=C(c1ccccc1)N(C)P2(=O)N1CCOCC1 (stereo not drawn) | inactive: 7.97%
54 | CN(C)C(=O)Oc1noc2ccccc12 | inactive: 7.97%
55 | Cc1ccccc1OP(=O)(Nc1ccccn1)Oc1ccccc1C | inactive: -6.21%
56 | CC(NC(=O)COC(=O)C(O)(c1ccccc1)c1ccccc1)c1ccccc1 (stereo not drawn) | inactive: 21%
57 | CCOc1ccc(C2=NCC(CBr)S2)cc1 (stereo not drawn) | inactive: -3.41%
58 | O=P1(Nc2nc3ccc(Cl)cc3s2)COc2ccccc2O1 (stereo not drawn) | inactive: -24.1%
59 | CC(C)(C)C(=O)NC(Sc1ccccc1)C(Cl)(Cl)Cl (stereo not drawn) | inactive: 7.04%
60 | CCc1cc(O)c([N+](=O)[O-])c(C)c1[N+](=O)[O-] | inactive: -13.6%
61 | C[C@@H]1C=CCP(=O)(Oc2ccccc2)O1 (stereo partly drawn) | inactive: 5.05%
62 | C[C@H]1OP(=O)(Oc2ccccc2)C[C@@H]2O[C@@H]21 (stereo partly drawn) | inactive: 9.04%
63 | Cc1ccccc1CN(C)C(=O)COC(=O)C(O)(c1ccccc1)c1ccccc1 | inactive: 3.42%
64 | COC(=O)C1(C)COP(=O)(NCc2ccccc2)OC1 (stereo not drawn) | inactive: 5.49%
65 | N#C/C(=C\c1ccc(N(CCBr)CCBr)cc1)C(N)=O | inactive: 29.1%
66 | CC(=O)c1ccc(N2CC2c2ccncc2)cc1 (stereo not drawn) | inactive: -15.5%
67 | CC(=O)Nc1ccc(Oc2c([N+](=O)[O-])cc([N+](=O)[O-])cc2[N+](=O)[O-])cc1 | inactive: -4.7%
68 | CC(=O)Nc1ccc([As](=O)(O)O)c(O)c1 | inactive: 10.7%
69 | O=P(Nc1nccs1)(c1ccccc1)c1ccccc1 | inactive: 7.03%
70 | CC(C)C(=O)NC(Sc1ccccc1)C(Cl)(Cl)Cl (stereo not drawn) | inactive: -2.33%
71 | c1nnnn1CCn1cnnn1 | inactive: 11%
72 | CN(C)C1(CNC(=O)c2ccc(Cl)c(S(N)(=O)=O)c2)CCCCC1 | inactive: -24.4%
73 | O=P(Nc1ccccn1)(c1ccc(Br)cc1)c1ccc(Br)cc1 | inactive: 23.1%
74 | Nc1ccc(CCCCOc2ccccc2)cc1 | inactive: -47.7%
75 | COc1ccc(N)c([N+](=O)[O-])c1[N+](=O)[O-] | inactive: 8.6%
76 | C[C@H]1OP(=O)(Oc2ccccc2)[C@H](O)[C@H](O)[C@H]1N=[N+]=[N-] (stereo partly drawn) | inactive: 5.4%
77 | O=P(Nc1nc2ccccc2s1)(c1ccccc1)c1ccccc1 | inactive: -51.4%
78 | O=[As](O)(c1ccccc1)c1ccc(O)cc1 | inactive: 9.19%

Row | SMILES | inhibition
79 | CC(=O)NC(SC(=S)N(C)C)C(Cl)(Cl)Cl (stereo not drawn) | inactive: 2.45%
80 | O=[N+]([O-])c1ncn(CCn2cnc([N+](=O)[O-])n2)n1 | inactive: -3.89%
81 | O=[N+]([O-])c1ccc(O)c(/C=N/Nc2ccc([N+](=O)[O-])cc2[N+](=O)[O-])c1 | inactive: 76.5%
82 | O=C(OC1CN2CCC1CC2)c1cccc(Cl)c1 (stereo not drawn) | inactive: -7.75%
83 | Nc1ccc([As](=O)(O)c2ccc([N+](=O)[O-])cc2)cc1 | inactive: -9.77%
84 | C(Cc1nn[nH]n1)Cc1nn[nH]n1 | inactive: -19.5%
85 | Cc1ccc(C(=O)OC2CN3CCC2CC3)cc1 (stereo not drawn) | inactive: -28.4%
86 | CC1CCC(C(C)C)C(OP(=O)(Nc2ccccn2)c2ccccc2)C1 (stereo not drawn) | inactive: 4.65%
87 | Cc1nn(-c2ccccc2)c2c1P(=O)(N1CCOCC1)N(C)C(c1ccccc1)=N2 (stereo not drawn) | inactive: -18.1%
88 | CN(C)C1(CNC(=O)c2ccc(S(C)(=O)=O)cc2)CCCCC1 | inactive: 15.5%
89 | CCCC1OP(=O)(Nc2ccccc2)OCC1CC (stereo not drawn) | inactive: -20.1%
90 | O=C(/C=C/c1ccccc1)OC1CN2CCC1CC2 (stereo not drawn) | inactive: 0.344%
91 | Cc1ccc(S(=O)(=O)N(CCCN)CCCc2c(C)nc(N)[nH]c2=O)cc1 | inactive: -16.9%
92 | O=P1(Nc2ncccn2)COc2ccccc2OC1 | inactive: 17.5%
93 | Nc1cccc([As](=O)(O)c2ccccc2)c1 | inactive: 5.57%
94 | NS(=O)(=O)c1cccc(NC(=O)COC(=O)C(O)(c2ccccc2)c2ccccc2)c1 | inactive: 4.42%
95 | O=P1(Nc2ccc(Br)cn2)COc2ccccc2OC1 | inactive: 7.7%
96 | Cc1ccc(OCC(=O)OC2CN3CCC2CC3)cc1 (stereo not drawn) | inactive: -9.41%
97 | O=[As](O)(c1cccs1)c1cccs1 | inactive: -25.1%
98 | CCOP(=O)(NC(=NC(C)c1ccccc1)NC(C)c1ccccc1)OCC (stereo not drawn) | inactive: 10.3%
99 | CCC1=CC2Cc3nc4ccc(Cl)cc4c(N)c3C(C1)C2 (stereo not drawn) | inactive: 15.6%
100 | O=P1(Nc2ccccn2)COc2ccccc2OC1 | inactive: 17.6%
101 | CN(CCCl)Cc1cc(Cl)c(NC2=NCCN2)c(Cl)c1 | inactive: 1.18%
102 | CCOP(=O)(Nc1ccc(C)cn1)OCC | inactive: 0.584%
103 | CC(C)(C)C(=O)NC(Sc1ncccn1)C(Cl)(Cl)Cl (stereo not drawn) | inactive: -34.2%

— PubChem BioAssay AID588674 (Broad Institute, 2011)
